Source: ChEMBL document CHEMBL1143173, “2D Autocorrelation, CoMFA, and CoMSIA modeling of protein tyrosine kinases' inhibition by substituted pyrido[2,3-d]pyrimidine derivatives” (Bioorg Med Chem, 2008)

Assays:
[1] = Inhibition of PDGFR
[2] = Inhibition of FGFR
[3] = target: Proto-oncogene tyrosine-protein kinase Src (Homo sapiens) (UniProt P12931); test: Inhibition of cSrc

log(10^6/IC50) [1]	log(10^6/IC50) [2]	log(10^6/IC50) [3]	Compound
3.1	3.86		COc1ccc(NC(=O)Nc2nc3nc(NCCCN4CCN(C)CC4)ncc3cc2-c2c(Cl)cccc2Cl)cc1
2.7	3.9	4.52	CN1CCN(CCCNc2ncc3cc(-c4c(Cl)cccc4Cl)c(NC(=O)NCc4ccccc4)nc3n2)CC1
